In US11267868:

Molecular target: human IgE
Assay: SPR; fit kinetic; antibody as IgG; antigen as Fc_fusion_or_other_dimer; on the surface: target; avidity possible

Kd (pH 5.8, 3 μmol/l CaCl2 [other variable at pH 5.8: calcium (3 μM here against […] at pH 7.4)]): 13 nM
Kd (pH 5.8, […] CaCl2): 9.9 nM
Kd (pH 7.4, […] CaCl2): 4.4 nM
Substance: Xolair
